Test: soluble on expression in E. coli; label from the status in PepcDB or PDB records

Soluble on expression in E. coli, soluble:
MRGSHHHHHHTDPQGDAAQKTDTSHHDQDHPTFNKITPNLAEFAFSLYRQLAHQSNSTNIFFSPVSIATAFAMLSLGTKADTHDEILEGLNFNLTEIPEAQIHEGFQELLRTLNQPDSQLQLTTGNFLFLSEGLKLVDKFLEDVKKLYHSEAFTVNFGDTEEAKKQINDYVEKGTQGKIVDLVKELDRDTVFALVNYIFFKGKWERPFEVKDTEEEDFHVDQVTTVKVPMMKRLGMFNIQHCKKLSSWVLLMKYLGNATAIFFLPDEGKLQHLENELTHDIITKFLENEDRRSASLHLPKLSITGTYDLKSVLGQLGITKVFSNGADLSGVTEEAPLKLSKAVHKAVLTIDEKGTEAAGAMFLEAIPMSIPPEVKFNKPFVFLMIEQNTKSPLFMGKVVNPTQK
MAEDADMRNELEEMQRRADQLADESLESTRRMLQLVEESKDAGIRTLVMLDEQGEQLDRVEEGMNHINQDMKEAEKNLKDLGK
MTMESGAENQQSGDAAVTEAENQQMTVQAQPQIATLAQVSMPAAHATSSAPTVTLVQLPNGQTVQVHGVIQAAQPSVIQSPQVQTVQSSCKDLKRLFSGTQISTIAESEDSQESVDSVTDSQKRREILSRRPSYRKILNDLSSDAPGVPRIEEEKSEEETSAPAITTVTVPTPIYQTSSGQYIAITQGGAIQLANNGTDGVQGLQTLTMTNAAATQPGTTILQYAQTTDGQQILVPSNQVVVQAASGDVQTYQIRTAPTSTIAPGVVMASSPALPTQPAEEAARKREVRLMKNREAARECRRKKKEYVKCLENRVAVLENQNKTLIEELKALKDLYCHKSDLEHHHHHH

— the DeepSol protein solubility set
